Cyclic peptide permeability, from CycPeptMPDB

Collected by the curators of CycPeptMPDB (Li et al. 2023) from Furukawa et al. 2016, doi:10.1021/acs.jmedchem.6b01246.

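Lipid, pH, incubation time, direction and concentration are not recorded in the data file. Other peptides of the study may be missing here. Entries at the database's floor value (log10 P of -10) are not listed.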

PAMPA measures passive passage through an artificial lipid membrane.
Caco-2: transport across a human colon carcinoma cell monolayer.
Permeability is in 10^-6 cm/s, converted from the database's log10 values; higher is more permeable.
"–" marks a cell with nothing listed here.

compound | PAMPA (10^-6 cm/s) | Caco-2 (10^-6 cm/s)
CCCC[C@@H]1NC(=O)[C@H](CC(C)C)N(C)C(=O)CN(CC2CCCCC2)C(=O)[C@@H](C)NC(=O)CN(CC)C(=O)[C@@H]2CCCN2C1=O | 4.8 | –
CCCC[C@@H]1NC(=O)[C@H](CC(C)C)N(C)C(=O)CN(CC2CCOCC2)C(=O)[C@H](Cc2ccccc2)NC(=O)CN(CC)C(=O)[C@H]2CCCN2C1=O | 3.2 | 1
CCCC[C@@H]1NC(=O)[C@@H](CC(C)C)NC(=O)CN(CC2CCCCC2)C(=O)[C@H](Cc2ccccc2)NC(=O)CN(Cc2ccc3c(c2)OCO3)C(=O)[C@@H]2CCCN2C1=O | 2.5 | –
CCCC[C@@H]1NC(=O)[C@H](CC(C)C)N(C)C(=O)CN(CC2CCCCC2)C(=O)[C@H](C)NC(=O)CN(CC)C(=O)[C@H]2CCCN2C1=O | 9.1 | –
CCCC[C@@H]1NC(=O)[C@H](CC(C)C)NC(=O)CN(CC2CCOCC2)C(=O)[C@@H](C)NC(=O)CN(CC)C(=O)[C@H]2CCCN2C1=O | 0.0016 | –
CCCC[C@@H]1NC(=O)[C@@H](CC(C)C)N(C)C(=O)CN(CC2CCCCC2)C(=O)[C@@H](Cc2ccccc2)NC(=O)CN(Cc2ccc3c(c2)OCO3)C(=O)[C@@H]2CCCN2C1=O | 1.1 | –
CCCCCN1CC(=O)N[C@H](CC(C)C)C(=O)N[C@@H](CCCC)C(=O)N2CCC[C@@H]2C(=O)N(Cc2ccc3c(c2)OCO3)CC(=O)N[C@@H](C)C1=O | 10 | –
CCCC[C@@H]1NC(=O)[C@@H](CC(C)C)N(C)C(=O)CN(CC2CCCCC2)C(=O)[C@@H](Cc2ccccc2)NC(=O)CN(CCCOC(C)C)C(=O)[C@H]2CCCN2C1=O | 3.3 | –
CCCC[C@@H]1NC(=O)[C@@H](CC(C)C)NC(=O)CN(CC2CCOCC2)C(=O)[C@H](Cc2ccccc2)NC(=O)CN(CCCOC(C)C)C(=O)[C@@H]2CCCN2C1=O | 2.8 | –
CCCC[C@@H]1NC(=O)[C@H](CC(C)C)N(C)C(=O)CN(CC2CCOCC2)C(=O)[C@@H](Cc2ccccc2)NC(=O)CN(Cc2ccc3c(c2)OCO3)C(=O)[C@@H]2CCCN2C1=O | 0.68 | –
CCCC[C@@H]1NC(=O)[C@H](CC(C)C)N(C)C(=O)CN(CC2CCOCC2)C(=O)[C@H](Cc2ccccc2)NC(=O)CN(Cc2ccc3c(c2)OCO3)C(=O)[C@@H]2CCCN2C1=O | 9.3 | –
CCCC[C@@H]1NC(=O)[C@H](CC(C)C)N(C)C(=O)CN(CC2CCCCC2)C(=O)[C@@H](C)NC(=O)CN(Cc2ccc3c(c2)OCO3)C(=O)[C@H]2CCCN2C1=O | 4.9 | –
CCCC[C@@H]1NC(=O)[C@H](CC(C)C)NC(=O)CN(CC2CCCCC2)C(=O)[C@H](Cc2ccccc2)NC(=O)CN(CCCOC(C)C)C(=O)[C@@H]2CCCN2C1=O | 13 | –
CCCC[C@@H]1NC(=O)[C@H](CC(C)C)NC(=O)CN(CC2CCCCC2)C(=O)[C@@H](Cc2ccccc2)NC(=O)CN(CCCOC(C)C)C(=O)[C@@H]2CCCN2C1=O | 7.2 | –
CCCC[C@@H]1NC(=O)[C@@H](CC(C)C)NC(=O)CN(CC2CCOCC2)C(=O)[C@@H](C)NC(=O)CN(CC)C(=O)[C@@H]2CCCN2C1=O | 0.01 | –
CCCC[C@@H]1NC(=O)[C@@H](CC(C)C)N(C)C(=O)CN(CC2CCCCC2)C(=O)[C@H](C)NC(=O)CN(Cc2ccc3c(c2)OCO3)C(=O)[C@@H]2CCCN2C1=O | 10 | –
CCCC[C@@H]1NC(=O)[C@H](CC(C)C)NC(=O)CN(CC2CCOCC2)C(=O)[C@@H](Cc2ccccc2)NC(=O)CN(CCCOC(C)C)C(=O)[C@@H]2CCCN2C1=O | 0.14 | –
CCCC[C@@H]1NC(=O)[C@H](CC(C)C)NC(=O)CN(CC2CCCCC2)C(=O)[C@H](C)NC(=O)CN(Cc2ccc3c(c2)OCO3)C(=O)[C@H]2CCCN2C1=O | 7.9 | –

Excerpt, the opening 2 entries:

compound | PAMPA (10^-6 cm/s) | Caco-2 (10^-6 cm/s)
CCCC[C@@H]1NC(=O)[C@H](CC(C)C)N(C)C(=O)CN(CC2CCCCC2)C(=O)[C@@H](C)NC(=O)CN(CC)C(=O)[C@@H]2CCCN2C1=O | 4.8 | –
CCCC[C@@H]1NC(=O)[C@H](CC(C)C)N(C)C(=O)CN(CC2CCOCC2)C(=O)[C@H](Cc2ccccc2)NC(=O)CN(CC)C(=O)[C@H]2CCCN2C1=O | 3.2 | 1